This test deals with T1, Histone deacetylase 8 (Homo sapiens, UniProt Q9BY41).
T1 sequence (Q9BY41 whole entry): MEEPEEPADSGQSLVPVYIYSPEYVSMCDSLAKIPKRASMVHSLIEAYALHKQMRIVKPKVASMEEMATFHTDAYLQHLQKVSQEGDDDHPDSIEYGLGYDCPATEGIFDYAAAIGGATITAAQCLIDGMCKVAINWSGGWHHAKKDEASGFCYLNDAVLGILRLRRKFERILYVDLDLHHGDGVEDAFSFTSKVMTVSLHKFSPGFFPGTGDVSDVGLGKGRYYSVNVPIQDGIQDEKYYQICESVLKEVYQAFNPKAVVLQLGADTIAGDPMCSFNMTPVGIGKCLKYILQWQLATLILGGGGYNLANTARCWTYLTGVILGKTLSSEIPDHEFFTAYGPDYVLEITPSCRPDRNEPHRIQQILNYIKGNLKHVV

Molecules are shown by their SMILES.

For the molecule `N[C@@H](CCCCCC(=O)c1ccon1)c1cnn(-c2ccc(F)cc2)c1`, the half-maximal inhibitory concentration (IC50) came out at 0.466 µM.

On to `N[C@@H](CCCCCC(=O)c1ccon1)c1cnn(-c2ccc(F)cc2)n1`, for which the IC50 amounted to 0.445 µM.

Usually IC50 stands for the midpoint of a concentration-inhibition curve. A higher IC50 goes with a need for much substance.
